Source: patent US20080221060A1, “Therapeutic Compounds” (priority 2004, published 2008)

The chains behind the UniProt entries cited, without tags or fusion partners.
UniProt P30543, whole entry: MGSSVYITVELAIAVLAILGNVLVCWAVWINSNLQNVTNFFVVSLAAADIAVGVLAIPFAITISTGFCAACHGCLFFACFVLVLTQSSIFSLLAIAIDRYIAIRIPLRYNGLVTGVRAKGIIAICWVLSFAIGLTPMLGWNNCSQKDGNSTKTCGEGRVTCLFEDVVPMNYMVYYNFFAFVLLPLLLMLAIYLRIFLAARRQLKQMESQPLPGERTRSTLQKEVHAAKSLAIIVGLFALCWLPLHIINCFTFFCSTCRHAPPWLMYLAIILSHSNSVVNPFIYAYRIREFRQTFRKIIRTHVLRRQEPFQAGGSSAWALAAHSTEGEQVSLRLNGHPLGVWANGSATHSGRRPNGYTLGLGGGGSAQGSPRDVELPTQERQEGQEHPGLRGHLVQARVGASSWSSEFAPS

Biological target: adenosine receptors (rat striatal membranes, [3H]-CGS21680) (Rattus norvegicus, UniProt P30543)
Assay: Ki from displacement of [3H]-CGS21680 in rat striatal membranes at pH 5.5 and pH 7.4
Assay type: binding
Design: from tissue; host or cells: rat striatum (membranes)
Settings: 2 nM [3H]-CGS21680, 90 minutes at 22° C.

Structure (SMILES)	Ki [nM]
Cc1ccccc1Oc1nc(N)c2ncn([C@@H]3O[C@H](CO)[C@@H](O)[C@H]3O)c2n1 [Compound 14]	24
CN(C)c1nc(N)c2ncn([C@@H]3O[C@H](CO)[C@@H](O)[C@H]3O)c2n1 [Compound 21]	24
